Assays:
[1] = target: rat histamine H3 receptor (Rattus norvegicus, UniProt Q9QYN8); experiment: Rat H3 radioligand binding ([3H]-N-alpha-methylhistamine, SPA); details: read-out: Rat Ki, Table A
[2] = target: human H3 receptor (Homo sapiens, UniProt Q9Y5N1); experiment: Human H3 radioligand binding ([3H]-N-alpha-methylhistamine, SPA); details: read-out: Human Ki, Table A
Description: Methods: CHO cells stably expressing the human H3 receptor (GenBank: NM_007232) were harvested and cell pellets were frozen (−80° C.). Cell pellets were resuspended in 5 mM Tris-HCl, pH 7.5 with […] and a cocktail of protease inhibitors (Complete Protease Inhibitior Tablets, Roche Diagnostics). Cells were disrupted using a polytron cell homogenizer and the suspension was centrifuged at 1000×g for 10 minutes at 4° C. The pellet was discarded and the supernatant centrifuged at 40,000×g for 30 min at 4° C. This membrane pellet was washed in membrane buffer containing 50 mM Tris-HCl, pH 7.5 with 0.6 mM EDTA, 5 mM MgCl2 and protease inhibitors, recentrifuged as above and the final pellet resuspended in membrane buffer plus 250 mM sucrose and frozen at −80° C.
Radioligand Binding. Membranes were resuspended in 50 mM Tris HCl (pH 7.4), 5 mM MgCl2, 0.1% BSA. The membrane suspensions (10 μg protein per well) were incubated in a 96 well microtiter plate with [^3H]-N-alpha-methylhistamine (approximately 1 nM final concentration), test compounds at various concentrations (0.01 nM-30 μM) and scintillation proximity beads (Perkin Elmer, FlashBlueGPCR Scintillating Beads) in a final volume of 80 μl for 4 hours at room temperature, protected from light. Non-specific binding was determined in the presence of 10 μM clobenpropit. Radioligand bound to receptor, and therefore in proximity to the scintillation beads, was measured using a MicroBeta scintillation counter.

The chains behind the UniProt entries cited, without tags or fusion partners.
UniProt Q9QYN8, whole entry: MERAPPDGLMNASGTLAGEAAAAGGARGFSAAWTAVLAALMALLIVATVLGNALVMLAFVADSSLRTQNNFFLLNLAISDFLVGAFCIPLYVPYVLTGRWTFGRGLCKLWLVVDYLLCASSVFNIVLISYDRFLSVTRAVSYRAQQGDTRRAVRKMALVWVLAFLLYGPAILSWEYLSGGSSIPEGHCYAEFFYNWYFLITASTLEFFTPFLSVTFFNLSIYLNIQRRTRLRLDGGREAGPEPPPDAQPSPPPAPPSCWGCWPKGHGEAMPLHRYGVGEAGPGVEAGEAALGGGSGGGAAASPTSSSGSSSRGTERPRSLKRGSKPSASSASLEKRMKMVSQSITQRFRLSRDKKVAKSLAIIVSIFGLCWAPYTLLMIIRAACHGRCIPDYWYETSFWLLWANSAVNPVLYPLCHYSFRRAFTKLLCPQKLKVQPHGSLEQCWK
UniProt Q9Y5N1, whole entry: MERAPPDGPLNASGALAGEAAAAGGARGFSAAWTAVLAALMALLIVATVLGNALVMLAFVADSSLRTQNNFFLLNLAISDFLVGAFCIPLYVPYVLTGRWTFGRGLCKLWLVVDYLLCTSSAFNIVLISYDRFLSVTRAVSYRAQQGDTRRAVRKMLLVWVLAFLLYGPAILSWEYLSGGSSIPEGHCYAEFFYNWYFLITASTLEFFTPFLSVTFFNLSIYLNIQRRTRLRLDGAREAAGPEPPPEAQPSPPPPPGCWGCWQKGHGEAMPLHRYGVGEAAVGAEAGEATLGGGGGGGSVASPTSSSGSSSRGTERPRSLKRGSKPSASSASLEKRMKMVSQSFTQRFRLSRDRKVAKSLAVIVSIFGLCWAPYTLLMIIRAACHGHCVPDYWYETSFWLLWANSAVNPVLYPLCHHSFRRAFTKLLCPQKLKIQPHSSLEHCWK

Structure (SMILES) | Ki [1] | Ki [2]
O=C1C[C@H](O)CN1c1ccc2c(c1)COC1(CCN(C3CCC3)CC1)O2 | 0.2 to 1 µM | 0.2 to 1 µM
CNS(=O)(=O)c1ccc(-c2ccc3c(c2)COC2(CCN(C4CCC4)CC2)O3)cc1 | < 0.2 µM | < 0.2 µM
Cc1nnc(-c2ccc(-c3ccc4c(c3)COC3(CCN(C5CCC5)CC3)O4)cc2)o1 | < 0.2 µM | < 0.2 µM
c1cc2c(cc1-c1ccc3c(c1)COC1(CCN(C4CCCC4)CC1)O3)CCO2 |  | < 0.2 µM
O=C(c1ccc(-c2ccc3c(c2)COC2(CCN(C4CCC4)CC2)O3)cc1)N1CC[C@@H](O)C1 | < 0.2 µM | < 0.2 µM
N#Cc1cccc(-c2ccc3c(c2)COC2(CCN(C4CCC4)CC2)O3)c1 | < 0.2 µM | < 0.2 µM
O=C1COCCN1c1ccc2c(c1)COC1(CCN(C3CCC3)CC1)O2 | 0.2 to 1 µM | < 0.2 µM

— patent US8513232B2, “Substituted spirocyclic piperidine derivatives as histamine-3 (H3) receptor ligands” (Cephalon, Inc., priority 2008, dated 2013)
